Measured values as given in US7122547B1, “Anthranilic acid amides and the use thereof as medicaments” (Schering AG, priority 1998, dated 2006).

Chains of the proteins cited; added tags and fusions are not shown. Residues count along the entry.
UniProt P17948, 27-1338 limits assumed: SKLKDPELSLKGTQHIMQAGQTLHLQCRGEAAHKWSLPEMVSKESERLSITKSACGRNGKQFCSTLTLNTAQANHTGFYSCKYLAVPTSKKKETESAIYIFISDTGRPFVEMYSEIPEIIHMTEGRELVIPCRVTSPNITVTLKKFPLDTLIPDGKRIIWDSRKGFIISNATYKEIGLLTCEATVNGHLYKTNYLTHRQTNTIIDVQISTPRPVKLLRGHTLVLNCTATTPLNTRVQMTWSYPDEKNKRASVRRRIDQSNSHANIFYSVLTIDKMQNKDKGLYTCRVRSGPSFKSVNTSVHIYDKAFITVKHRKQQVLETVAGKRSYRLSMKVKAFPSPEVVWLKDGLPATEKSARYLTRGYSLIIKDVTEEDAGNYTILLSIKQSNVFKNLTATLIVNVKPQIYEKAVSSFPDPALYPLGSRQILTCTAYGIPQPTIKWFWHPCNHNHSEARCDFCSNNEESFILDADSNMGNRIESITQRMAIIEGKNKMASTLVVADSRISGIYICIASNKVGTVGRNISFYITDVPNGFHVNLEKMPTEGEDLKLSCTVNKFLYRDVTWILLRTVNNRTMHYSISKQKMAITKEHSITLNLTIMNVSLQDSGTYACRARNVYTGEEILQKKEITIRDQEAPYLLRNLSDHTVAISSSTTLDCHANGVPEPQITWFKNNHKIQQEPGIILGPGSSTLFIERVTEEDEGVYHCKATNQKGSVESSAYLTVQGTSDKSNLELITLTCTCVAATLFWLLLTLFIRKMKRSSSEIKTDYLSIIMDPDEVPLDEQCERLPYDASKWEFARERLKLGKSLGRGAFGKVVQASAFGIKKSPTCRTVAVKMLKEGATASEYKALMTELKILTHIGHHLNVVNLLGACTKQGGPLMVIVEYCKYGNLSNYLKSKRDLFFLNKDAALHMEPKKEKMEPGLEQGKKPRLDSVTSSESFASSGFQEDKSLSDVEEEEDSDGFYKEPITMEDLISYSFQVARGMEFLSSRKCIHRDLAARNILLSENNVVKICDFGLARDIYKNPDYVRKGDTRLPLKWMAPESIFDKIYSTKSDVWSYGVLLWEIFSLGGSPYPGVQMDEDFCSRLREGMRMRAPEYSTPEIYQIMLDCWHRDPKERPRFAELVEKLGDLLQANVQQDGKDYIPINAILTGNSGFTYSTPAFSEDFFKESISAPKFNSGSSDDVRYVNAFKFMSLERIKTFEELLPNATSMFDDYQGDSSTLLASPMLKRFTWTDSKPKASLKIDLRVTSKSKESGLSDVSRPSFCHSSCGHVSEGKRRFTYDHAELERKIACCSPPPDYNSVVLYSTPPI
UniProt P35968, 20-1356 limits assumed: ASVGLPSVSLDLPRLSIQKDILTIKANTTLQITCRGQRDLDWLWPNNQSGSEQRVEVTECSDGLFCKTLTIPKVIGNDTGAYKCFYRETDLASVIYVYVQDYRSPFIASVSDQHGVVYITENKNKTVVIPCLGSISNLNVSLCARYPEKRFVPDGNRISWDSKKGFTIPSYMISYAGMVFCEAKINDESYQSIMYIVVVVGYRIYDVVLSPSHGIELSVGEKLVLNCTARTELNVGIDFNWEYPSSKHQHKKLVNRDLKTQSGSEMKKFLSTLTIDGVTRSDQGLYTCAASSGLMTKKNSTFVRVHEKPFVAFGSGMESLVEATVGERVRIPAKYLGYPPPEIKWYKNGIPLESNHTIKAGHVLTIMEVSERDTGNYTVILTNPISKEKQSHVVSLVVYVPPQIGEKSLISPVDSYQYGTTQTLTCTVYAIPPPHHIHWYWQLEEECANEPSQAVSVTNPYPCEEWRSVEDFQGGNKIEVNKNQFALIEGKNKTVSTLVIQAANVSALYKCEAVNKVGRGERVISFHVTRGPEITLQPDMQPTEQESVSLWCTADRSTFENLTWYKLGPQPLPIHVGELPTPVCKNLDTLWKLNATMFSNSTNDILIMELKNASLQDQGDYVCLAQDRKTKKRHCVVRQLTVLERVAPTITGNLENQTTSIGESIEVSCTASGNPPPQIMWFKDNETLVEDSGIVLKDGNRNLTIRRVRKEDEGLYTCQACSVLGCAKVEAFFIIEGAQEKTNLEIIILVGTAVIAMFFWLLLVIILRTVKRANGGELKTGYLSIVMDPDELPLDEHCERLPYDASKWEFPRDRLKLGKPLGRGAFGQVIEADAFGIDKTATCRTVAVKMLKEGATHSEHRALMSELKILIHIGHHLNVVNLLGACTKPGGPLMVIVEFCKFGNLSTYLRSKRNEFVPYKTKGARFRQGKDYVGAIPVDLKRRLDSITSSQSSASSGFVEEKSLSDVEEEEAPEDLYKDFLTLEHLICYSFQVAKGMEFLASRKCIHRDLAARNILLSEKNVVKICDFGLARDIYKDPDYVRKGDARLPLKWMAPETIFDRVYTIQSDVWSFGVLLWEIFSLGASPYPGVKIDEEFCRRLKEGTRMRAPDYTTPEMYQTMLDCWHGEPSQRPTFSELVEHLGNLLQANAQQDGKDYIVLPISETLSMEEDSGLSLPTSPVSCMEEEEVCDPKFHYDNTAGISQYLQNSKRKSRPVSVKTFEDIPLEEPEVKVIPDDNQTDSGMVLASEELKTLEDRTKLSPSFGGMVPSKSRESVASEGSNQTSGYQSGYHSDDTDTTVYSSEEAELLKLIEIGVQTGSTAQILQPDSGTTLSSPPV

Experiments:
VEGFR I (FLT) = VEGFR I (FLT) (Homo sapiens, UniProt P17948); test: Inhibition of FLT-1 kinase activity (33P-ATP, poly-(Glu4Tyr) phosphocellulose filter assay); format: biochemical; conditions: read-out: kinase-inhibition IC50 VEGFR I (FLT), 10 minutes at room temperature, KH = keine Hemmung = No inhibition
VEGFR II (KDR) = VEGFR II (KDR) (Homo sapiens, UniProt P35968); test: Inhibition of KDR kinase activity (33P-ATP, poly-(Glu4Tyr) phosphocellulose filter assay); format: biochemical; conditions: read-out: kinase-inhibition IC50 VEGFR II (KDR), 10 minutes at room temperature, KH = keine Hemmung = No inhibition

O=C(NCCc1ccc(O)cc1)c1ccccc1NCc1ccncc1
IC50 (VEGFR I (FLT)): 50 nM
IC50 (VEGFR II (KDR)): 200 nM

O=C(NCCCCc1ccccc1)c1ccccc1NCc1ccncc1
IC50 (VEGFR I (FLT)): 5 nM
IC50 (VEGFR II (KDR)): 20 nM

O=C(Nc1nc2ccccc2s1)c1ccc(F)cc1NCc1ccncc1
IC50 (VEGFR I (FLT)): 50 nM
IC50 (VEGFR II (KDR)): 40 nM

O=C(NNCc1ccccc1)c1ccccc1NCc1ccncc1
IC50 (VEGFR I (FLT)): 300 nM
IC50 (VEGFR II (KDR)): 200 nM

O=C(NCCc1ccccc1)c1ccccc1NCc1ccncc1
IC50 (VEGFR I (FLT)): 40 nM
IC50 (VEGFR II (KDR)): 50 nM

O=C(Nc1nc2ccccc2s1)c1cc(Cl)ccc1NCc1ccncc1
IC50 (VEGFR II (KDR)): 50 nM

O=C(NCCc1cccnc1)c1ccccc1NCc1ccncc1
IC50 (VEGFR I (FLT)): 1000 nM
IC50 (VEGFR II (KDR)): 2000 nM

O=C(NCCc1ccncc1)c1ccccc1NCc1ccncc1
IC50 (VEGFR I (FLT)): 2000 nM
IC50 (VEGFR II (KDR)): 3000 nM
